Source: PubChem BioAssay (NCI)
Only a part is listed here, and it is no random draw.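 Cell lines were cultured in 96-well plates, exposed to a single compound concentration, and assessed for percent growth 48 hours later.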 Active and inactive are the calls of the source. The calls were made as follows: active = growth percent below 10; inactive = the rest.

Legend:
Experiment in all cases: NCI-60 one-dose screen, 48 h (100 = growth as untreated, 0 = no growth, -100 = all killed)
Details in all cases: 10 µM
[1] = tested on: SK-MEL-2 melanoma
[2] = tested on: EKVX NSCLC
[3] = tested on: SN12C renal
[4] = tested on: UO-31 renal
[5] = tested on: TK-10 renal
[6] = tested on: ACHN renal
[7] = tested on: A498 renal
[8] = tested on: HL-60(TB) leukemia
[9] = tested on: CCRF-CEM leukemia
[10] = tested on: MOLT-4 leukemia
[11] = tested on: SR leukemia
[12] = tested on: RPMI-8226 leukemia
[13] = tested on: OVCAR-8 ovarian
[14] = tested on: OVCAR-5 ovarian
[15] = tested on: OVCAR-4 ovarian
[16] = tested on: SK-OV-3 ovarian
[17] = tested on: IGROV1 ovarian
[18] = tested on: OVCAR-3 ovarian
[19] = tested on: CAKI-1 renal
[20] = tested on: HS 578T breast

Measured: growth

COc1cc(CN(CCCl)CCBr)cc(OC)c1
inactive: [1] 102% | [2] 91.8% | [3] 102% | [4] 86.1% | [5] 111% | [6] 101% | [7] 82.1% | [8] 87.4% | [9] 89.5% | [10] 107% | [11] 89% | [12] 97.8% | [13] 95.8% | [14] 88.8% | [15] 101% | [16] 118% | [17] 110% | [18] 111%

O=C1CCN(CCc2ccccc2)CC1
inactive: [1] 100% | [2] 96.7% | [3] 93.6% | [4] 86.1% | [5] 110% | [6] 102% | [19] 89.2% | [7] 83.1% | [8] 167% | [9] 108% | [10] 156% | [11] 134% | [12] 92.3% | [13] 94.4% | [14] 75.6% | [15] 116% | [16] 90.5% | [17] 82.6% | [18] 132% | [20] 43.6%

Cc1ccc(NC2(C(N)=O)CCN(Cc3ccccc3)CC2)cc1
inactive: [1] 108% | [2] 94.5% | [3] 99.7% | [4] 76.3% | [5] 111% | [6] 106% | [19] 95% | [8] 111% | [9] 106% | [10] 96.1% | [12] 101% | [13] 103% | [14] 99.7% | [15] 97% | [16] 109% | [17] 102% | [18] 117% | [20] 102%

O=P1(N(CCCl)CCCl)SCCCS1
inactive: [1] 129% | [2] 105% | [3] 116% | [4] 111% | [5] 105% | [6] 124% | [19] 123% | [7] 77.1% | [8] 111% | [9] 99% | [10] 96% | [11] 92.9% | [12] 115% | [13] 105% | [14] 115% | [15] 109% | [16] 112% | [18] 118% | [20] 99%

Fc1cccc(CBr)c1
inactive: [1] 93.6% | [2] 100% | [3] 108% | [4] 81.6% | [5] 110% | [6] 109% | [19] 102% | [7] 99.8% | [8] 97.1% | [10] 95% | [11] 96.8% | [12] 112% | [13] 110% | [14] 108% | [15] 111% | [16] 104% | [17] 104% | [18] 104% | [20] 99.9%

N#Cc1ccc(N(CCCl)CCCl)cc1
inactive: [1] 109% | [2] 58.6% | [3] 105% | [4] 74.8% | [5] 111% | [6] 102% | [7] 117% | [8] 109% | [9] 96.1% | [10] 109% | [11] 95.6% | [12] 92.1% | [13] 97.5% | [14] 88.1% | [15] 95.9% | [16] 93% | [17] 93.8% | [18] 108%

Cn1c(=O)[nH]cc(N(CCCl)CCCl)c1=O
inactive: [1] 92.4% | [2] 105% | [3] 76.6% | [4] 90.3% | [5] 92.7% | [6] 51.9% | [19] 56.1% | [7] 105% | [8] 47.8% | [9] 45.4% | [10] 57.4% | [11] 30.2% | [12] 87.1% | [13] 86.7% | [14] 106% | [15] 104% | [16] 122% | [17] 85.9% | [18] 105% | [20] 96.2%

Cc1ccc(CN(CCCl)CCCl)cc1
inactive: [1] 115% | [2] 105% | [3] 92.1% | [4] 83.7% | [5] 99.8% | [6] 94.4% | [8] 78.5% | [9] 91.5% | [10] 83% | [11] 62.7% | [12] 94.9% | [13] 96.9% | [14] 112% | [15] 101% | [16] 89.6% | [17] 70.4% | [18] 89.7%

NC(=O)C1(Nc2ccccc2)CCNCC1
inactive: [1] 97.5% | [2] 107% | [3] 106% | [4] 85.8% | [5] 107% | [6] 105% | [19] 102% | [8] 92.2% | [9] 94.9% | [10] 91.5% | [12] 105% | [13] 103% | [14] 94.5% | [15] 111% | [16] 106% | [17] 112% | [18] 108% | [20] 117%
